Chains of the proteins cited; added tags and fusions are not shown.
UniProt P23975, whole entry: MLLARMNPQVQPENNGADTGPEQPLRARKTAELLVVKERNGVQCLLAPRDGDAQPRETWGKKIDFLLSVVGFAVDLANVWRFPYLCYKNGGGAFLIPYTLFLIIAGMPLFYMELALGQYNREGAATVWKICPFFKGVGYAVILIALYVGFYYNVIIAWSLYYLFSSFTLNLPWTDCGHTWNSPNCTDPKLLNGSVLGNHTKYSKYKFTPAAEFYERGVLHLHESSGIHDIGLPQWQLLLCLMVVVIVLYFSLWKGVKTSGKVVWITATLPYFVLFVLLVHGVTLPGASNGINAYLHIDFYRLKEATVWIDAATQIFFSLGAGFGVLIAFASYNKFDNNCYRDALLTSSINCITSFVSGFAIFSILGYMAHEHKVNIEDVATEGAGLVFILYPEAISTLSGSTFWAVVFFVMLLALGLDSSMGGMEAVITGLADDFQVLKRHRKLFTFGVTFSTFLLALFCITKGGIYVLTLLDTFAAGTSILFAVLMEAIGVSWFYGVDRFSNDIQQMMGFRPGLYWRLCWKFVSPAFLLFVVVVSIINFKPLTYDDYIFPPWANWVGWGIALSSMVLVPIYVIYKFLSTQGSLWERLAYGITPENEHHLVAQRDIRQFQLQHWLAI

In ChEMBL document CHEMBL1137326, “Cyclic MrIA: a stable and potent cyclic conotoxin with a novel topological fold that targets the norepinephrine transporter” (J Med Chem, 2006):

Experiments:
[1] = biological target: Sodium-dependent noradrenaline transporter (Homo sapiens, UniProt P23975); assay: Displacement of [3H]nisoxetine from human NET in COS7 cells; format: cell-based, COS-7
[2] = tested on: trypsin; assay: Stability against cleavage by trypsin after 24 hrs by enzymatic digestion assay; format: ADME; settings: human, read-out: Activity

SMILES: CC(C)C[C@@H]1NC(=O)[C@H](CCCCN)NC(=O)[C@H](Cc2ccc(O)cc2)NC(=O)CNC(=O)[C@@H]2CSSC[C@H](NC1=O)C(=O)N[C@@H](Cc1c[nH]cn1)C(=O)N1C[C@H](O)C[C@H]1C(=O)N[C@H]1CSSC[C@H](NC(=O)[C@H](C(C)C)NC(=O)CNC(=O)[C@H](CC(N)=O)NC(=O)CNC(=O)[C@H](C)NC1=O)C(=O)N2
- EC50 [1]: 1380 nM
- remaining at 24 h [2]: 97%
